Earlier results as cited in patent US8518443B2, “Opioid agonist formulations with releasable and sequestered antagonist” (Purdue Pharma, L.P., priority 2001, dated 2013).

Test system: opioid receptors
Details: cited from earlier work

For `C=CCN1CC[C@]23c4c5ccc(O)c4O[C@H]2C(=O)CC[C@@]3(O)[C@H]1C5` [naloxone], the “block of the effect of 25 mg of heroin” value (one mg intravenously) is listed as “completely block” and the “effect on morphine-like opioid agonist effects” value (small doses (0.4-0.8 mg) intramuscularly or intravenously in man) is listed as “prevent or promptly reverse”.
